In BindingDB's records for US20250197396 (Lieber Institute, 2025) one finds IC50 data, which are given here for 3 compounds.

Sequences of proteins named here, by UniProt entry; tags and fusion partners are left off. A change or cut given only in a name is not applied to a line headed by its entry.
UniProt Q92551: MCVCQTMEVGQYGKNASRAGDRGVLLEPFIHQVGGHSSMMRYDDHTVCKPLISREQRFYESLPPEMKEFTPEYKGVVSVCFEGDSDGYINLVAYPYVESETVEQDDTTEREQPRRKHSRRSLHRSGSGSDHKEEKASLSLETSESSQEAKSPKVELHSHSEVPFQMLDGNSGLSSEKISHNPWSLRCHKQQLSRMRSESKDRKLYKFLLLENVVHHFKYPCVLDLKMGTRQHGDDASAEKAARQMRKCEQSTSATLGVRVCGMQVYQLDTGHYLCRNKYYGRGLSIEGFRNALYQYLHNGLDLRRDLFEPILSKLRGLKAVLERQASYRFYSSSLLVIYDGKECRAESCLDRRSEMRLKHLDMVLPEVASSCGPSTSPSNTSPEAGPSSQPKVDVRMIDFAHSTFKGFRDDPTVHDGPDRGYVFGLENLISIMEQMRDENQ

This assay deals with Inositol hexakisphosphate kinase 1 (Homo sapiens, UniProt Q92551). Briefly: Not found.
Text: Not found
The compound `O=C(O)c1ccc2[nH]c(=O)n(C3CCN(Cc4ccccc4Cl)CC3)c2c1` returned an IC50 of 1650 nM.

For `O=C(O)c1ccc2[nH]c(=O)n(C3CCN(Cc4ccc(Cl)cc4Cl)CC3)c2c1`, the IC50 was 1650 nM.

Turning to `O=C(O)c1ccc2c(c1)[nH]c(=O)n2C1CCN(Cc2ccc(Cl)cc2Cl)CC1`, the half-maximal inhibitory concentration (IC50) was determined as 16500 nM.
